The source of these data is ChEMBL document CHEMBL3797043 (Bioorg Med Chem Lett, 2016).

By UniProt entry, the sequences of proteins in these tests, tags left out.
UniProt O00519, whole entry: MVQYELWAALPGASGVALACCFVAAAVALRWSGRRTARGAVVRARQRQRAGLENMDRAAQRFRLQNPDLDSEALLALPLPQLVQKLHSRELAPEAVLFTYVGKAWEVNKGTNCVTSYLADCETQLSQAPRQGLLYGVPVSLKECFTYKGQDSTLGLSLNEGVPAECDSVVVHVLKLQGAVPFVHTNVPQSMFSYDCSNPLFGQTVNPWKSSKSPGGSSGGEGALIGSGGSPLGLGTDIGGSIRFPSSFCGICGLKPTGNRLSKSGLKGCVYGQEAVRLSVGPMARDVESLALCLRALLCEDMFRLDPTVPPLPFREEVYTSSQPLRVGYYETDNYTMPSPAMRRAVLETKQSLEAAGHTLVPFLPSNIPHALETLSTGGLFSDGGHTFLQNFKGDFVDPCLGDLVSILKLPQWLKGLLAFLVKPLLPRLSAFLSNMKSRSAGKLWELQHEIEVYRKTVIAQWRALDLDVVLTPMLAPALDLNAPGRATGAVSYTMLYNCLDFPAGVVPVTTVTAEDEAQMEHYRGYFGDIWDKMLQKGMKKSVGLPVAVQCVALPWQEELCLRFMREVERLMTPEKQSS

Activity calls are given as the source filed them. The calls are words filed in the database; no cut-off is given here.

The assay has as its target Fatty-acid amide hydrolase 1 (Homo sapiens, UniProt O00519). Description: Reversible inhibition of MBP-fused human recombinant FAAH with truncated N-terminal transmembrane domain expressed in Escherichia coli T7 assessed as enzyme activity recovery rate using D-AMC substrate measured 24 to 144 hrs after exhaustive dialysis by fluorescence based assay.

Take `O=C(Nc1ccccc1)N1CCN(c2nc(-c3ccccc3)ns2)CC1`: the inhibition entry is “Active”.
